Test results as given in PMC11272584 (Nature Metabolism, 2024).
Numbering of substitutions follows the chain as printed.

Assays:
GIPR A150T = target: T1, GIPR A150T (Homo sapiens, UniProt P48546, A150T); settings: GIPR A150T (1.52), mean, n = 5, duplicate
T1 sequence (P48546 22-466 A150T): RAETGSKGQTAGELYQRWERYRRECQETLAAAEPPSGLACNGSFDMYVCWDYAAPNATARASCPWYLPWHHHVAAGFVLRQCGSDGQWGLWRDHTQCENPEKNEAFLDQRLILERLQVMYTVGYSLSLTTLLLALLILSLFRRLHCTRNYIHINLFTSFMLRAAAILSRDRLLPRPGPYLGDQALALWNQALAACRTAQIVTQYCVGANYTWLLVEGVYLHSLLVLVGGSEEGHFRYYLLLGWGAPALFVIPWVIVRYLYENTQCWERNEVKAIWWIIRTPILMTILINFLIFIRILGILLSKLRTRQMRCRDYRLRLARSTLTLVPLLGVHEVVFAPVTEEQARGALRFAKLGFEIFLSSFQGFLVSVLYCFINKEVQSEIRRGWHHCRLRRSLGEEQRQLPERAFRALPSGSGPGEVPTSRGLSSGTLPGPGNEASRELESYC

GIPR R183Q = target: T2, GIPR R183Q (Homo sapiens, UniProt P48546, R183Q); experiment: cAMP accumulation; type: cell-based; parameters: host or cells: HEK293
T2 sequence (P48546 22-466 R183Q): T1 sequence (P48546 22-466 A150T) with T129A, R162Q

GIPR V99I = target: T3, GIPR V99I (Homo sapiens, UniProt P48546, V99I); experiment: cAMP accumulation; type: cell-based; parameters: host or cells: HEK293
T3 sequence (P48546 22-466 V99I): T1 sequence (P48546 22-466 A150T) with V78I, T129A

GIPR I299V = target: T4, GIPR I299V (Homo sapiens, UniProt P48546, I299V); settings: HEK293A, 1 µM GIP minus vehicle, n = 4, P = 0.0305
T4 sequence (P48546 22-466 I299V): T1 sequence (P48546 22-466 A150T) with T129A, I278V

GIPR A207V = target: T5, GIPR A207V (Homo sapiens, UniProt P48546, A207V); experiment: cAMP accumulation; type: cell-based; parameters: host or cells: HEK293
T5 sequence (P48546 22-466 A207V): T1 sequence (P48546 22-466 A150T) with T129A, A186V

glucose-dependent insulinotropic polypeptide [GIP]
logEC50 (Arrestin) (GIPR A150T; Hill slope 1.0): -8.9
Arrestin (Emax) (GIPR A150T; normalized to WT GIPR): 82
cAMP (Emax) (GIPR R183Q; HEK293, GIP(1–42) 1 pM–100 nM, 30 min 37 °C, mean of n = 3): 118 % of WT GIPR activity
logEC50 (cAMP) (GIPR R183Q; HEK293, Hill slope 1.0, mean of n = 3): -8.0
cAMP (Emax) (GIPR V99I; HEK293, GIP(1–42) 1 pM–100 nM, 30 min 37 °C, mean of n = 4): 15 % of WT GIPR activity
logEC50 (cAMP) (GIPR V99I; HEK293, Hill slope 1.0, mean of n = 4): -9.2
Mean of ΔBRET (GIPR I299V): 0.0859
cAMP (Emax) (GIPR A207V; HEK293, GIP(1–42) 1 pM–100 nM, 30 min 37 °C, mean of n = 6): 20 % of WT GIPR activity
logEC50 (cAMP) (GIPR A207V; HEK293, Hill slope 1.0, mean of n = 6): -9.9
